The assay concerns the target mouse P23H-opsin mutant (Mus musculus, UniProt P15409, P23H). Kind of assay: β-Gal fragment complementation assay: rescue of P23H opsin transport from ER to plasma membrane, U2OS(PLC-EA/P23H-PK) cells. Type of assay: cell-based.

With `O=C1OCC(c2cccs2)=C1c1cccs1`, the “activity in rescuing P23H-opsin transport (in words)” value (from here on “activity”) is “some activity that remained”.

With `O=C1OCC(c2ccc(Cl)s2)=C1c1cccc(Cl)c1`, the “activity” value is “lower efficacies”.

As to `COc1ccccc1C1=C(c2ccc(Cl)s2)COC1=O`, the “activity” value is “relatively higher efficacies”.

Regarding `O=C1OCC(c2ccc(Cl)s2)=C1c1ccccc1[N+](=O)[O-]`, the “activity” value is listed as “relatively higher efficacies”.

As for `O=C1OCC(c2ccc(F)s2)=C1c1cccs1`, the “activity” value was “some activity that remained”.

For the origin of these results see PMC5958115, “A novel small molecule chaperone of rod opsin and its potential therapy for retinal degeneration” (Nature Communications, 2018).
